One may read the IC50 as the concentration that gives 50% inhibition. Low readings indicate greater potency in that assay, high ones weaker potency in that assay.

Sequences of proteins named here, by UniProt entry; tags and fusion partners are left off.
UniProt P25440, whole entry: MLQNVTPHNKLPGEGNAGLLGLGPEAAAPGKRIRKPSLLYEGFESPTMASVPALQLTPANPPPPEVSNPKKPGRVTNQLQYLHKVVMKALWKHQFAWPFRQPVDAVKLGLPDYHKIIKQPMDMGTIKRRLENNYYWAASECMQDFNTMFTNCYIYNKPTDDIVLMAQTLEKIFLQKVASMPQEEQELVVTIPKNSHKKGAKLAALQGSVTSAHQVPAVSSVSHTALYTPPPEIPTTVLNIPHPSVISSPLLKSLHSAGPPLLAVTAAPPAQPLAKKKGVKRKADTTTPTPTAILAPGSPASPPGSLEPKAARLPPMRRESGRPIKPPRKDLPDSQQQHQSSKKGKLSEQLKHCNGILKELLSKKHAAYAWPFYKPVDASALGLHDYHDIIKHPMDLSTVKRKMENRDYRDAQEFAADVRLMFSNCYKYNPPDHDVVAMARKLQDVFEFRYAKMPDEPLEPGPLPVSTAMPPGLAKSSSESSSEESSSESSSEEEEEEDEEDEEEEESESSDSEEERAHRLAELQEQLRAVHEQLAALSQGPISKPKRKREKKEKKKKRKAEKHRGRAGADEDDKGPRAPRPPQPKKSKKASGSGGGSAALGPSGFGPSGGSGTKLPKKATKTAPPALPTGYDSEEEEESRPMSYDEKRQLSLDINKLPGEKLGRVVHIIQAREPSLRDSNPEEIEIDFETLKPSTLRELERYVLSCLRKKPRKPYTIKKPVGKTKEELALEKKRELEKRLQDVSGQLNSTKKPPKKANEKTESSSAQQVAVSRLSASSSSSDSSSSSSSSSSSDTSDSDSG

Data on 1 compound can be found in ChEMBL document CHEMBL5346911, “From PROTAC to inhibitor: Structure-guided discovery of potent and orally bioavailable BET inhibitors” (Eur J Med Chem, 2023).

Assay [1] deals with T1, Bromodomain-containing protein 2 (Homo sapiens, UniProt P25440). The assay is described as follows: Inhibition of BRD2 BD1 (unknown origin) by TR-FRET assay. In general terms: Time-resolved FRET reads energy transfer from a long-lived donor to a nearby acceptor.
Assay [2] has as its target T1, Bromodomain-containing protein 2. Put plainly: Inhibition of BRD2 BD2 (unknown origin) by TR-FRET assay.

`Cc1sc2c(c1C)C(c1ccc(Cl)cc1)=N[C@@H](CC(=O)Nc1ccc(O)cc1)c1nnc(C)n1-2` [BIRABRESIB]: the IC50 in assay [1] amounted to 58 nM; in assay [2] it was 3 nM.
